What is called Ki is the dissociation constant of the complex between target and ligand, obtained from inhibition or displacement.

Protein sequences, listed by entry. Tags and fused reporters are not part of them.
UniProt P41146, whole entry: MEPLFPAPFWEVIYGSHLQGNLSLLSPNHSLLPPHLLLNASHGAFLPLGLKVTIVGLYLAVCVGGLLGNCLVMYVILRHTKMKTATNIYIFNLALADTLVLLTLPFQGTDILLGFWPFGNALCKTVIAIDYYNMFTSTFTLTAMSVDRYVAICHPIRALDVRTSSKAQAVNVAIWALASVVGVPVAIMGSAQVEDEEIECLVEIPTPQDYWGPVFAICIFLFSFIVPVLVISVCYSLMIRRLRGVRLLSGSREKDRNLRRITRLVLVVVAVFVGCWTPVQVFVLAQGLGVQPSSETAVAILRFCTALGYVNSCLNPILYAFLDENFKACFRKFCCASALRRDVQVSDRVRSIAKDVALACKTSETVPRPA
UniProt P35372, whole entry: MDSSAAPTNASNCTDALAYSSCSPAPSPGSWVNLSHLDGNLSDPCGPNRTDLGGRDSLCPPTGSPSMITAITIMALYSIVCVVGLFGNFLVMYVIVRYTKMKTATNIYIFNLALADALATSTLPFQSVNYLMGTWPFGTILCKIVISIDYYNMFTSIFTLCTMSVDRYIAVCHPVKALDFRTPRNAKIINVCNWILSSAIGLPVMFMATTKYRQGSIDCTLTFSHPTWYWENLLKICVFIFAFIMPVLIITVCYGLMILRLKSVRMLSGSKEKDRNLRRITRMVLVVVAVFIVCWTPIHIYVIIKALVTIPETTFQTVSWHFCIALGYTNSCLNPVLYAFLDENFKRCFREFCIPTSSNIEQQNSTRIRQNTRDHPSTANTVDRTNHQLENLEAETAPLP

The text below walks through data of US8034936B2, “Spirocyclic cyclohexane compounds useful to treat substance dependency” (Gruenenthal GmbH, priority 2005, dated 2011).

Structures are written as SMILES. Where two headings read alike, the source gives them in different places.

In one assay the target is ORL1 receptor (Homo sapiens, UniProt P41146). Kind of assay: ORL1 receptor binding assay with 3H-nociceptin/orphanin FQ, membranes of recombinant CHO-ORL1 cells.
For a further assay, the target named is human μ-opiate receptor (Homo sapiens, UniProt P35372). Kind of assay: μ-opiate receptor binding, [3H]-naloxone displacement, CHO-K1 membrane preparation.
Setting [1] is: read-out: ORL1 human Ki, No. 1-49.

In the case of `CNC1(c2ccccc2)CCC2(CC1)OCCc1c2[nH]c2ccc(F)cc12` (centres unmarked), the “ORL1/μ ratio calculated as Ki(μ)/Ki(ORL1) (only for measured Ki values)” value on ORL1 receptor (comparison compounds) is 0.1. The Ki on ORL1 receptor (read-out: ORL-1 Ki, printed in the % inhibition column) came out at 14.3 nM; at human μ-opiate receptor (read-out: μ-opiate-receptor Ki, printed in the % inhibition column), 1.8 nM.

Turning to `CN(C)C1(c2ccccc2)CCC2(CC1)OCCc1c2[nH]c2ccc(O)cc12` (centres unmarked), the “ORL1/μ Ratio calculated as Ki(μ)/Ki(ORL1)” value at ORL1 receptor (No. 1-49) is recorded as 0.7. Further, the Ki worked out at 1.6 nM at ORL1 receptor (setting [1]) and 1.1 nM on human μ-opiate receptor (read-out: μ Ki, No. 1-49).

In the case of `CN(C)C1(c2cccs2)CCC2(CC1)OCCc1c2[nH]c2ccc(F)cc12` (centres unmarked), the “ORL1/μ Ratio calculated as Ki(μ)/Ki(ORL1)” value at ORL1 receptor (No. 1-49) is reported as 0.82. In addition, the Ki came to 0.7 nM on ORL1 receptor (setting [1]) and 0.6 nM at human μ-opiate receptor (read-out: μ Ki, No. 1-49).

On to `CNC1(c2cccs2)CCC2(CC1)OCCc1c2[nH]c2ccccc12` (centres unmarked), for which the “ORL1/μ Ratio calculated as Ki(μ)/Ki(ORL1)” value on ORL1 receptor (No. 1-49) is recorded as 6.56. The Ki at ORL1 receptor (setting [1]) is 0.32 nM; on human μ-opiate receptor (read-out: μ Ki, No. 1-49), 2.1 nM.

`CN(C)C1(Cc2ccccc2)CCC2(CC1)NCCc1c2[nH]c2ccccc12` (centres unmarked): on ORL1 receptor (No. 1-49), the “ORL1/μ Ratio calculated as Ki(μ)/Ki(ORL1)” value is 0.54. Besides, the inhibition constant Ki on ORL1 receptor (setting [1]) amounted to 1.1 nM; at human μ-opiate receptor (read-out: μ Ki, No. 1-49) it was 0.6 nM.

Regarding `CN(C)C1(c2cccs2)CCC2(CC1)OCCc1c2[nH]c2ccccc12` (centres unmarked), the “ORL1/μ Ratio calculated as Ki(μ)/Ki(ORL1)” value on ORL1 receptor (No. 1-49) is recorded as 2.07. Besides, the Ki at ORL1 receptor (setting [1]) was 0.3 nM; on human μ-opiate receptor (read-out: μ Ki, No. 1-49), 0.6 nM.

Consider `CN(C)C1(c2cccc(F)c2)CCC2(CC1)NCCc1c2[nH]c2ccccc12` (centres unmarked), for which the “ORL1/μ Ratio calculated as Ki(μ)/Ki(ORL1)” value at ORL1 receptor (No. 1-49) is recorded as 2.22. Also, the Ki on ORL1 receptor (setting [1]) was 3.6 nM; on human μ-opiate receptor (read-out: μ Ki, No. 1-49) it was 8 nM.

For `CN(C)C1(c2ccccc2)CCC2(CC1)NCCc1c2[nH]c2ccccc12` (centres unmarked), the “ORL1/μ Ratio calculated as Ki(μ)/Ki(ORL1)” value at ORL1 receptor (No. 1-49) was 1.38. Also, the Ki at human μ-opiate receptor (read-out: μ Ki, No. 1-49) stood at 0.4 nM.

Consider `CN(C)C1(c2ccccc2)CCC2(CC1)NCCc1c2[nH]c2ccc(F)cc12` (centres unmarked), for which, on ORL1 receptor (No. 1-49), the “ORL1/μ Ratio calculated as Ki(μ)/Ki(ORL1)” value is recorded as 0.51. Besides, the Ki worked out at 1.4 nM on ORL1 receptor (setting [1]) and 0.7 nM on human μ-opiate receptor (read-out: μ Ki, No. 1-49).

With `CN(C)C1(c2ccsc2)CCC2(CC1)OCCc1c2[nH]c2ccccc12` (centres unmarked), the “ORL1/μ Ratio calculated as Ki(μ)/Ki(ORL1)” value on ORL1 receptor (No. 1-49) is reported as 1.19. In addition, the Ki came to 0.6 nM at ORL1 receptor (setting [1]) and 0.7 nM on human μ-opiate receptor (read-out: μ Ki, No. 1-49).

`CN(C)C1(c2ccsc2)CCC2(CC1)OCCc1c2[nH]c2ccc(F)cc12` (centres unmarked): the “ORL1/μ Ratio calculated as Ki(μ)/Ki(ORL1)” value on ORL1 receptor (No. 1-49) is listed as 1.62. Moreover, the Ki at ORL1 receptor (setting [1]) was found to be 0.3 nM; at human μ-opiate receptor (read-out: μ Ki, No. 1-49) it was 0.6 nM.
